# Antibody variant affinities, Ab-14 light chain, assay B

Target peptide (SARS-CoV-2 spike, HR2 region): PDVDLGDISGINAS

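The parent was found by panning a naive human phage display library on the peptide. Designed CDR sequences, proposed from the first random library and measured here. Several design methods are mixed in this list. The assay is AlphaSeq: two haploid yeast populations carry antibody and antigen on their surface. The frequency of each diploid, read from paired DNA barcodes, reflects how well the two displayed proteins bind. Each replicate has its own calibration line, from reference interactions of the BCL2 family. Each pool was mated in six replicate cultures.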

Ab-14 is the parent antibody, in scFv form: VH, then a 15-residue (Gly4Ser)3 linker, then VL. The heavy chain is unchanged in all variants.
VH: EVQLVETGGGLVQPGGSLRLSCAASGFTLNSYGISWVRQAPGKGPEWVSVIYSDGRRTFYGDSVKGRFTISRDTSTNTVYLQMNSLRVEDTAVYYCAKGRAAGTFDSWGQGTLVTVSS
VL: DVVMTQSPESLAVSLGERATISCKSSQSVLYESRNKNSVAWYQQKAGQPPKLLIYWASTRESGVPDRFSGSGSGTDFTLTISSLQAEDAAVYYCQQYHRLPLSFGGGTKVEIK

Changes read parent residue, position, new residue, counted from the first residue of the VL shown.
This list holds designs with at most six substitutions.
Affinities are written as log10 Kd with Kd in nM; a lower number is a better binder.
Replicates are averaged; those with no signal do not enter the mean.
A pair that was not seen in that replicate is written "ND"; this usually means weak binding, but a binder can also be missed.

* S25I W56H P101H -> 0.69, 0.49, 0.48, 0.54, 0.74, 0.99 (mean 0.66; controls 0 of 18)
* K24H Q27P W56N S103V -> 0.39, -0.01, 0.23, 0.06, -0.04, 0.13 (mean 0.13; controls 0 of 18)
* W56N T59L Y97C -> 1.37, 1.01, 0.90, 1.10, 1.15, 1.13 (mean 1.11; controls 3 of 18)
* S25V S33E W56E T59Q -> ND, 0.74, ND, ND, ND, ND (controls 0 of 18)
* S26G V29F Y31Q W56G T59M -> 0.09, -0.02, 0.18, 0.02, -0.10, 0.31 (mean 0.08; controls 0 of 18)
* S25Y V29E W56N T59Q -> 0.25, 0.12, -0.25, -0.10, 0.24, 0.12 (mean 0.06; controls 1 of 18)
* V29F W56G Q95E P101T -> -0.48, -0.56, -0.40, -0.57, -0.52, -0.22 (mean -0.46; controls 0 of 18)
* S26E W56G -> -0.32, 0.16, -0.31, -0.27, -0.10, -0.01 (mean -0.14; controls 0 of 18)
* L30R S33E R99M S103Q -> ND, ND, ND, ND, ND, ND (controls 0 of 18)
* S28D S33M K36V -> ND, ND, ND, 2.92, 2.73, ND (mean 2.83; controls 0 of 18)
* S25V S26P Q27G S28E V29N W56E -> -0.07, 0.02, -0.18, -0.18, 0.02, 0.29 (mean -0.02; controls 1 of 18)
* S26G Q27F S28G S38H W56G -> 0.65, 0.89, 1.16, 0.66, 0.76, 0.65 (mean 0.80; controls 0 of 18)
* S25Q S28G W56G S103D -> 1.67, 1.32, 0.89, 1.24, 1.05, 1.76 (mean 1.32; controls 0 of 18)
* S25M E32A -> ND, 1.52, 1.62, 1.48, 2.14, 1.83 (mean 1.72; controls 2 of 18)
* S25F L30C N35T W56N -> -0.16, -0.53, -0.28, -0.61, -0.40, -0.25 (mean -0.37; controls 3 of 18)
* Q27W E32N S58Q S62P -> ND, ND, ND, ND, ND, ND (controls 0 of 18)
* S25I V29Y W56G -> -0.21, -0.04, -0.31, -0.30, -0.16, -0.09 (mean -0.19; controls 1 of 18)
* S25M Q95F R99H -> ND, 1.50, 1.88, 3.80, ND, ND (mean 2.39; controls 1 of 18)
* S25L V29H N35M W56N -> -0.24, -0.29, -0.50, -0.46, -0.37, -0.34 (mean -0.37; controls 1 of 18)
* S25T S26M V29D V39I W56R P101M -> ND, ND, ND, ND, ND, ND (controls 0 of 18)
* S28G R34M -> 1.61, 1.08, 1.50, 1.36, 1.90, 1.82 (mean 1.55; controls 0 of 18)
* S25L S26Q V29W W56N T59Y -> 0.25, 0.00, -0.13, -0.07, -0.01, 0.01 (mean 0.01; controls 2 of 18)
* Q27N V29D Y31A R34T S38P -> ND, ND, 1.08, ND, ND, ND (controls 0 of 18)
* S25L V29F N35W W56D T59Q -> 0.20, 0.81, 0.46, -0.06, -0.07, 0.31 (mean 0.27; controls 0 of 18)
* S33M R34N N35Q N37Q W56E S103T -> 0.49, 0.63, 0.47, 0.50, 0.36, 0.72 (mean 0.53; controls 0 of 18)
* S25I S26V V29W W56G -> 0.47, 0.07, 0.20, 0.05, 0.26, 0.15 (mean 0.20; controls 0 of 18)
* V39N T59V -> ND, 3.66, ND, ND, ND, ND (controls 0 of 18)
* A57K S103Q -> ND, ND, ND, ND, ND, 2.16 (controls 0 of 18)
* K24H Q27P W56N L102F -> -0.02, -0.06, -0.05, -0.11, -0.15, 0.03 (mean -0.06; controls 1 of 18)
* K24D S62Q P101M -> ND, ND, 3.51, 2.04, 1.63, 2.12 (mean 2.32; controls 0 of 18)
* S25L S26M W56N T59K -> -0.03, -0.05, -0.15, -0.30, 0.10, 0.22 (mean -0.04; controls 2 of 18)
* S25F R34G N35T W56N -> -0.25, -0.29, -0.20, -0.26, -0.42, -0.51 (mean -0.32; controls 1 of 18)
* S25L V29C N35M W56N -> 0.32, 0.47, 0.08, 0.28, 0.30, 0.33 (mean 0.30; controls 2 of 18)
* S25V V29E W56E Q96S -> 0.32, 0.03, 0.11, 0.03, 0.19, 0.44 (mean 0.19; controls 0 of 18)
* S26L Q27W R34N W56N S62D -> 0.37, 0.59, 0.28, 0.25, 0.24, 0.29 (mean 0.34; controls 0 of 18)
* S25L S26R V29T S103R -> 2.25, 2.14, ND, 2.14, 2.56, 2.58 (mean 2.34; controls 1 of 18)
* Y31Q E32Q W56D -> 0.00, 0.00, -0.04, 0.01, -0.25, 0.04 (mean -0.04; controls 2 of 18)
* K24L S25L S26Q V29E W56D Q96A -> 0.49, 0.39, 0.23, 0.03, 0.39, 0.51 (mean 0.34; controls 2 of 18)
* S25L S26E V29L L30N W56N -> 0.06, -0.45, -0.25, -0.34, -0.04, -0.44 (mean -0.24; controls 1 of 18)
* S25M Y31M S33L W56D T59L -> 0.23, -0.08, -0.05, -0.19, 0.00, 0.20 (mean 0.02; controls 0 of 18)

Excerpt, the first 5 entries:

changes	log10 Kd (nM) by replicate	mean log10 Kd (nM)	signal with controls
S25I W56H P101H	0.69, 0.49, 0.48, 0.54, 0.74, 0.99	0.66	0 of 18
K24H Q27P W56N S103V	0.39, -0.01, 0.23, 0.06, -0.04, 0.13	0.13	0 of 18
W56N T59L Y97C	1.37, 1.01, 0.90, 1.10, 1.15, 1.13	1.11	3 of 18
S25V S33E W56E T59Q	ND, 0.74, ND, ND, ND, ND	0.74	0 of 18
S26G V29F Y31Q W56G T59M	0.09, -0.02, 0.18, 0.02, -0.10, 0.31	0.08	0 of 18

The authors averaged sequences with at least three values out of six and counted those with two or fewer as poor binders.
Values of this round are not directly comparable with the first-round values of the same sequences.
Background: pairings of all light chain designs with three empty control strains gave a value in 4% of cases (median 2.64, 5th percentile 1.59). Values in that range, when seen in few replicates, are hard to tell from nonspecific mating. The control count says in how many pairings with the empty strains this scFv gave a signal.
The parent sequence was in this pool as ten entries: three were never detected, three once, and four in most replicates, with averages from 0.34 to 2.37.

The measurements come from Li et al. 2023 (doi:10.1038/s41467-023-39022-2) through the FLAb antibody collection.